Test system: Mus musculus
Test: Antiinflammatory activity in po dosed BALB/c mouse model of endotoxic shock assessed as inhibition of LPS-induced TNFalpha production administered 30 mins before LPS challenge measured after 60 mins by ELISA
Assay type: functional

Cc1ccc(-n2nc(C(C)(C)C)cc2NC(=O)NCc2cc(F)ccc2Oc2ccnc(N3CCOCC3)n2)cc1
inhibition: Dose-dependent effect

Reference: ChEMBL document CHEMBL2057089, “Design and synthesis of novel p38α MAP kinase inhibitors: discovery of pyrazole-benzyl ureas bearing 2-molpholinopyrimidine moiety” (Bioorg Med Chem Lett, 2012)
